Values after ≈ are worked out from the molar mass of the structure shown.

Usually IC50 stands for the concentration needed to halve the response being measured. Read a low IC50 as greater potency.

This assay relates to L1210. Nature of the assay: The activity in vitro on L1210 murine leukemia cells, activity expressed as IC50. The assay is classed as functional, cell-based, Mus musculus.

Molecule `O=C(O)c1ccc(N(CCCl)CCCl)cc1` gave an IC50 of 17000 ng/mL (≈ 65 µM).

Source of the values: ChEMBL document CHEMBL1127778, “Structure-activity relationship of novel distamycin a derivatives : synthesis and antitumor activity” (Bioorg Med Chem Lett, 1994).
